Reference: patent publication US9624188B2, “IDO inhibitors” (BRISTOL-MYERS SQUIBB COMPANY, priority 2013, dated 2017)

Amino acid sequences for entries named in this document (tags omitted).
UniProt P14902, whole entry: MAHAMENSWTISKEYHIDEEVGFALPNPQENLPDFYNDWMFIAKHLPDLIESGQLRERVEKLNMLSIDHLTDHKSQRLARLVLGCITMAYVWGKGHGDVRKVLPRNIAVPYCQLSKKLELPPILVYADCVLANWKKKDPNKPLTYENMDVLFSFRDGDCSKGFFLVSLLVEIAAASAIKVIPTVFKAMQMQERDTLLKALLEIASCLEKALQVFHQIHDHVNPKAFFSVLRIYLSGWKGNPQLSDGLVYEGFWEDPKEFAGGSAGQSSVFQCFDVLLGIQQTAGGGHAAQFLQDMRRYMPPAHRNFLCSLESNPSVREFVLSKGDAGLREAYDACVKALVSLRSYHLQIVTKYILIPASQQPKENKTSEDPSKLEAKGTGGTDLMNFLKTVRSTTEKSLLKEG

Target: Human IDO1 (Homo sapiens (Human), UniProt P14902)
Assay: IDO Kynurenine Assay with Human IDO1/HEK293 Cells
Format: cell-based
Details: 20 hours incubation, kynurenine detected with Ehrlich reagent, absorbance at 490 nm, read-out: HEK Human IDO-1 IC50
Method: IDO Kynurenine Assay with Human IDO1/HEK293 Cells
Human IDO1/HEK293 cells were seeded at 10,000 cells per 50 uL per well with RPMI/phenol red free media contains 10% FBS in a 384-well black wall clear bottom tissue culture plate (Matrix Technologies LLC) 125 nL of certain concentration of compound was then added to each well using ECHO liquid handling systems. The cells were incubated for 20 hours in 37° C. incubator with 5% CO2.
The compound treatments were stopped by adding Trichloroacetic Acid (Sigma-Aldrich) to a final concentration at 0.2%. The cell plate was further incubated at 50° C. for 30 minute. The equal volume supernatant (20 uL) and 0.2% (w/v) Ehrlich reagent (4-dimethylaminobenzaldehyde, Sigma-Aldrich) in glacial acetic acid were mixed in a new clear bottom 384-well plate. This plate was then incubated at room temperature for 30 minute. The absorbance at 490 nm was measured on Envision plate reader.
Compound IC50 values were calculated using the counts of 500 nM of a reference standard treatment as one hundred percent inhibition, and counts of no compound but DMSO treatment as zero percent inhibition.

IC50: 7 nM
SMILES: CC(C)CN(CC(C)C)c1ccc(C(C)CC(=O)O)cc1NC(=O)Nc1cc(C(F)(F)F)no1 (racemic) [Example 46, 3-(4-(diisobutylamino)-3-(3-(3-(trifluoromethyl)isoxazol-5-yl)ureido)phenyl)butanoic acid]
